According to PubChem BioAssay AID540281 (Sanford-Burnham Center for Chemical Genomics, 2011):
The entries are a selection whose mix differs from that of the whole data set. Activity calls are given as the source filed them.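 Rule for the calls: active = inhibition of at least 30% at 20 µM; inactive = the rest.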

Sequences of proteins named here, by UniProt entry; tags and fusion partners are left off. Residues count along the entry.
UniProt Q9GZU7, 76-261 limits assumed: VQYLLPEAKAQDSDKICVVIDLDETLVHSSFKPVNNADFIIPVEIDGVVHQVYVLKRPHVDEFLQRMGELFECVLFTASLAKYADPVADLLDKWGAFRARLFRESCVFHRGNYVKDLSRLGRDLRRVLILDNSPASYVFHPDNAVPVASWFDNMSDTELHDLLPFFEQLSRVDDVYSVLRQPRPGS

Each compound was assayed against Carboxy-terminal domain RNA polymerase II polypeptide A small phosphatase 1 (Homo sapiens) (UniProt Q9GZU7) (assay: Scp-1 phosphatase inhibitors, retest, confirmation, biochemical, colorimetric, single concentration (AID 540281;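 note: plate controls were DMSO with enzyme for no effect and buffer wells lacking enzyme for full effect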)). Conditions: recombinant SCP-1 catalytic domain, phosphate release, malachite green absorbance; at 20 µM; hits give high values.
Summary of the method: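 assay system = SCP-1 catalytic fragment (residues 76-261) | timing = Enzyme–substrate reaction 45 min, room temperature | measured by = colorimetric absorbance at 630 nm of released free orthophosphate | also added = Phospho-17-mer peptide substrate | compound dosing = single 20 µM final compound concentration, 1.0% DMSO | medium = Acidic Tris acetate with 10 mM MgCl2 and Tween-20, pH 5.5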

SMILES	inhibition
O=C1C(O)=C([N+](=O)[O-])C(=O)C(O)=C1[N+](=O)[O-]	active: 68.2%
